The values that follow come from patent publication US6846803B1, “Antagonists specific for the corticotropin-releasing factor receptor type 2 (CRFR2)” (priority 1998, dated 2005).

Sequences of proteins named here, by UniProt entry; tags and fusion partners are left off. Residues count along the entry.
UniProt Q60748, 1-431 isoform Q60748-2: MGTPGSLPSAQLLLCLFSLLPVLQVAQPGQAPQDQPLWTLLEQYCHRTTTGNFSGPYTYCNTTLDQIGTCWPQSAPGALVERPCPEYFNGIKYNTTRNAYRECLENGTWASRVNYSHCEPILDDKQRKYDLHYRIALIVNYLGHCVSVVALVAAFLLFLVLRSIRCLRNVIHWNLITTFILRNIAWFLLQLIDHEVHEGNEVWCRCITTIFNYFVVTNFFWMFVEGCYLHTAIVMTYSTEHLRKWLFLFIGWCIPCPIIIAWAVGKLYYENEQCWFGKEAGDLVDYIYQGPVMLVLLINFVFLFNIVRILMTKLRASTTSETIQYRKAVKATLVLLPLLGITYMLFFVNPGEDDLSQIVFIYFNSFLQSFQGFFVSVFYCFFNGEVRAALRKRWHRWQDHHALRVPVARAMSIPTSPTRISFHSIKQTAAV

The target of experiment [1] is T1, mCRFR2β (Mus musculus, UniProt Q60748).
T1 construct: expressed in transfected cells; host or cells: HEK 293 cells, stably transfected (HEK-mCRFR2β); membrane homogenates
Description: cAMP stimulation / inhibition of Svg-stimulated cAMP production in HEK-mCRFR2β cells. Type of experiment: cell-based. Conditions: read-out: HEK-mCRFR2β cells rel. IA (relative intrinsic activity). As for the experimental part:
(§1) HEK-rCRFR1 cells or HEK-mCRFR2β cells were incubated with different CRF agonists in the presence or absence of 1 μM or 10 nM antagonist, or CRF antagonist (c=1 μM) alone. After removal of the medium, cells were lyzed with aqueous 6% trichloroacetic acid (5 min, 100° C.) (Rühmann, A., A. K. E. Köpke, F. M. Dautzenberg, and J. Spiess, Proc. Natl. Acad. Sci. USA 93: 10609-10613, 1996). The cell lysates were stored at −70° C. until assayed with a RIA kit (Amersham, Little Chalfont). […] Statistical significance was determined across groups with ANOVA, and significant differences between groups were determined by post hoc comparison using the Dunn test.
(§2) Intrinsic activities were measured at peptide concentrations generating maximal formation of cAMP in HEK-rCRFR1 or HEK-mCRFR2β cells.
In general terms: Cyclic AMP is a second messenger, typically raised through Gs and lowered through Gi signalling.

The target of experiment [2] is T2, rCRFR1 (Rattus norvegicus, UniProt P35353).
T2 construct: expressed in transfected cells; host or cells: HEK 293 cells, stably transfected (HEK-rCRFR1)
T2 sequence (P35353 24-415): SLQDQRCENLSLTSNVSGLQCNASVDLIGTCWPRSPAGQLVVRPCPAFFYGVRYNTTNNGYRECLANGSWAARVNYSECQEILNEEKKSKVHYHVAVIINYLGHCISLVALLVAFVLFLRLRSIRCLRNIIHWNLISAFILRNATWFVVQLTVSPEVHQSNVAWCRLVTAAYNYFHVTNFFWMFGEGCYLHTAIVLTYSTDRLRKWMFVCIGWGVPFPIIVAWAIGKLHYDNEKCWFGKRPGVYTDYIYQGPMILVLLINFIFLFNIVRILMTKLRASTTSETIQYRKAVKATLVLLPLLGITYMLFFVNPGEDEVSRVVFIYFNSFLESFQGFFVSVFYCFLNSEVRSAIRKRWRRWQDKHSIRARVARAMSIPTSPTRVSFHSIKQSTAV
Description: cAMP stimulation / inhibition of oCRF-stimulated cAMP production in HEK-rCRFR1 cells. Format: cell-based. The settings on record: read-out: HEK-rCRFR1 cells rel. IA (relative intrinsic activity). Here is the method:
as §1, §2

With `CCCC[C@H](NC(=O)[C@H](CCC(=O)O)NC(=O)[C@H](CC(C)C)NC(=O)[C@@H](NC(=O)[C@H](CCC(=O)O)NC(=O)[C@H](CCCNC(=N)N)NC(=O)[C@H](CC(C)C)NC(=O)[C@H](CC(C)C)NC(=O)[C@H](Cc1c[nH]cn1)NC(=O)c1ccc(C2(C(F)(F)F)N=N2)cc1)C(C)C)C(=O)N[C@@H](C)C(=O)N[C@@H](CCCNC(=N)N)C(=O)N[C@@H](C)C(=O)N[C@@H](CCC(=O)O)C(=O)N[C@@H](CCC(N)=O)C(=O)N[C@@H](CC(C)C)C(=O)N[C@@H](C)C(=O)N[C@@H](CCC(N)=O)C(=O)N[C@H]1CCC(=O)NCCCC[C@@H](C(=O)N[C@@H](CC(N)=O)C(=O)N[C@@H](CCCNC(=N)N)C(=O)N[C@@H](CCCCN)C(=O)N[C@@H](CC(C)C)C(=O)N[C@@H](CCCC)C(=O)N[C@@H](CCC(=O)O)C(=O)N[C@H](C(=O)N[C@H](C(N)=O)[C@@H](C)CC)[C@@H](C)CC)NC(=O)[C@H](C)NC(=O)[C@H](C)NC1=O` [compound 15, ATB-cyclo(30-33)[Nle^21,38, Glu^30, Ala^32, Lys^33]h/rCRF(13-41)], the Emax amounted to 1 ± 0.1% in experiment [1] and 10 ± 1% in experiment [2].

`CCCC[C@H](NC(=O)[C@H](CCC(=O)O)NC(=O)[C@H](CC(C)C)NC(=O)[C@@H](NC(=O)[C@H](CCC(=O)O)NC(=O)[C@H](CCCNC(=N)N)NC(=O)[C@H](CC(C)C)NC(=O)[C@H](CC(C)C)NC(=O)[C@H](Cc1c[nH]cn1)NC(=O)c1ccc(C2(C(F)(F)F)N=N2)cc1)C(C)C)C(=O)N[C@@H](C)C(=O)N[C@@H](CCCNC(=N)N)C(=O)N[C@@H](C)C(=O)N[C@@H](CCC(=O)O)C(=O)N[C@@H](CCC(N)=O)C(=O)N[C@@H](CC(C)C)C(=O)N[C@@H](C)C(=O)N[C@@H](CCC(N)=O)C(=O)N[C@H]1CCC(=O)NCCCC[C@@H](C(=O)N[C@@H](CC(N)=O)C(=O)N[C@@H](CCCNC(=N)N)C(=O)N[C@@H](CCCCN)C(=O)N[C@@H](CC(C)C)C(=O)N[C@@H](CCCC)C(=O)N[C@@H](CCC(=O)O)C(=O)N[C@H](C(=O)N[C@H](C(N)=O)[C@@H](C)CC)[C@@H](C)CC)NC(=O)[C@H](Cc2ccc(O)cc2)NC(=O)[C@H](C)NC1=O` [compound 16, ATB-cyclo(30-33)[Nle^21,38, Glu^30, Tyr^32, Lys^33]h/rCRF(13-41)]: the results for the Emax in experiment [1] and in experiment [2] were 0.8 ± 0.3% and 8 ± 1%, respectively.
